Earlier results as cited in patent publication US20180303845A1, “USE OF TLR8 AGONISTS TO TREAT CANCER” (VentiRx Pharmaceuticals, Inc., priority 2015, published 2018).

What was measured:
CTLA-4^+FOXP3^+ Treg = conditions: in combination with TGF-β and T cell receptor triggering; cited from earlier work
[1] = system: CD4^+FOXP3^+ intratumoral Treg; conditions: neoadjuvant single-agent cetuximab, HNC patients; cited from earlier work

Cetuximab: anti-EGFR monoclonal antibody
CTLA-4^+FOXP3^+ Treg in vitro (CTLA-4^+FOXP3^+ Treg): expanded | frequency of CD4^+FOXP3^+ intratumoral Treg expressing CTLA-4, CD39 and TGF-β [1]: increased
